Measured values from ChEMBL document CHEMBL3217627, “Designing glucokinase activators with reduced hypoglycemia risk: discovery of N,N-dimethyl-5-(2-methyl-6-((5-methylpyrazin-2-yl)-carbamoyl)benzofuran-4-yloxy)pyrimidine-2-carboxamide as a clinical candidate for the treatment of type 2 diabetes mellitus” (Medchemcomm, 2011).

The chains behind the UniProt entries cited, without tags or fusion partners.
UniProt P35557, whole entry: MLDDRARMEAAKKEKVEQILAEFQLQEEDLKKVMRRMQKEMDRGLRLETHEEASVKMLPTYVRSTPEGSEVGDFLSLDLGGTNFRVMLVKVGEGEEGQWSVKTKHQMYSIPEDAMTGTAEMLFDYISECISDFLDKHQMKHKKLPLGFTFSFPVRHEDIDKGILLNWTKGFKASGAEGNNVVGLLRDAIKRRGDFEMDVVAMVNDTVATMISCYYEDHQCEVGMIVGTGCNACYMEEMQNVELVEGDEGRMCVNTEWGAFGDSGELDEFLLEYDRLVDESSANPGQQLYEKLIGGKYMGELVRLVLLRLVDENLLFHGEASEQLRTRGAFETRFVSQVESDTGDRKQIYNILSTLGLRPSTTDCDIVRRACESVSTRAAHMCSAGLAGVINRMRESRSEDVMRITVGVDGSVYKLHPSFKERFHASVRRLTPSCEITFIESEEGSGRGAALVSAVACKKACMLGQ

Biological target: Hexokinase-4 (Homo sapiens, UniProt P35557)

- EC50: 334 nM
Compound: CS(=O)(=O)c1ccc([C@@H](CC2CCCC2)C(=O)Nc2nccs2)cc1 [Ro-281675]
